Data taken from patent US20260384438A1, “PYRROLOPYRIMIDINE CARBOXAMIDES” (published 2026).

The chains behind the UniProt entries cited, without tags or fusion partners. Residues count along the entry.
UniProt Q15139, whole entry: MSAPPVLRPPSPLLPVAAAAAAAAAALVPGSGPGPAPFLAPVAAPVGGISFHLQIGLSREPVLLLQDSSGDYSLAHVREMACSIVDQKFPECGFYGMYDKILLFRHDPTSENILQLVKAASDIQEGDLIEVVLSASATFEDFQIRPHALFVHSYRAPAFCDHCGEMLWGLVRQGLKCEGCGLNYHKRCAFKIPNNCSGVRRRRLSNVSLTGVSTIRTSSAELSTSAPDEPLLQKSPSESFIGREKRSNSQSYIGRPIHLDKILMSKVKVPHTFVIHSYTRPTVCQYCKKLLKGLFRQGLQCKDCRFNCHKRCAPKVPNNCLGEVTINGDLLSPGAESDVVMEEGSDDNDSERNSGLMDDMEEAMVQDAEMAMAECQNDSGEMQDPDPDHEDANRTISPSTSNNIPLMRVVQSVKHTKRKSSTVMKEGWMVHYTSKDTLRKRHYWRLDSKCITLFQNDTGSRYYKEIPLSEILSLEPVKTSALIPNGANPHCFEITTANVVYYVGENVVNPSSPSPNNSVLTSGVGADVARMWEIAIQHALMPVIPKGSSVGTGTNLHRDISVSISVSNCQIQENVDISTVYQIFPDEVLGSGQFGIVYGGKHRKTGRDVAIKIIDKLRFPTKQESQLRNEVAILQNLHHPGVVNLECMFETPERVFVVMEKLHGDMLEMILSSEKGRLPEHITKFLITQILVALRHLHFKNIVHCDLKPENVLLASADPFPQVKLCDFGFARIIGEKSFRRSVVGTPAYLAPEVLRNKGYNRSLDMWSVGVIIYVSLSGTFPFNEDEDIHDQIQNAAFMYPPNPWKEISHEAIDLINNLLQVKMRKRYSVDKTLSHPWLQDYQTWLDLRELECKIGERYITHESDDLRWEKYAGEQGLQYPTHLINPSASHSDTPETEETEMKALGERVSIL
UniProt O15264, whole entry: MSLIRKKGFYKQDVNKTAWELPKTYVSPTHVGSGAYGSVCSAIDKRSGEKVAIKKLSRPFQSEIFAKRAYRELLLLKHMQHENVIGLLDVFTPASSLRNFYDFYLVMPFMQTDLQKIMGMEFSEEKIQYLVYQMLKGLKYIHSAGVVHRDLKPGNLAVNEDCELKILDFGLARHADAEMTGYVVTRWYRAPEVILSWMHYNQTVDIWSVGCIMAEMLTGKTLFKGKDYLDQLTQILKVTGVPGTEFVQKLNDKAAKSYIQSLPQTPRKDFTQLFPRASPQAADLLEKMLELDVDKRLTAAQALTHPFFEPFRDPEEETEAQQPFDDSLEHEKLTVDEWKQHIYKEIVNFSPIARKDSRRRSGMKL
UniProt Q13237, whole entry: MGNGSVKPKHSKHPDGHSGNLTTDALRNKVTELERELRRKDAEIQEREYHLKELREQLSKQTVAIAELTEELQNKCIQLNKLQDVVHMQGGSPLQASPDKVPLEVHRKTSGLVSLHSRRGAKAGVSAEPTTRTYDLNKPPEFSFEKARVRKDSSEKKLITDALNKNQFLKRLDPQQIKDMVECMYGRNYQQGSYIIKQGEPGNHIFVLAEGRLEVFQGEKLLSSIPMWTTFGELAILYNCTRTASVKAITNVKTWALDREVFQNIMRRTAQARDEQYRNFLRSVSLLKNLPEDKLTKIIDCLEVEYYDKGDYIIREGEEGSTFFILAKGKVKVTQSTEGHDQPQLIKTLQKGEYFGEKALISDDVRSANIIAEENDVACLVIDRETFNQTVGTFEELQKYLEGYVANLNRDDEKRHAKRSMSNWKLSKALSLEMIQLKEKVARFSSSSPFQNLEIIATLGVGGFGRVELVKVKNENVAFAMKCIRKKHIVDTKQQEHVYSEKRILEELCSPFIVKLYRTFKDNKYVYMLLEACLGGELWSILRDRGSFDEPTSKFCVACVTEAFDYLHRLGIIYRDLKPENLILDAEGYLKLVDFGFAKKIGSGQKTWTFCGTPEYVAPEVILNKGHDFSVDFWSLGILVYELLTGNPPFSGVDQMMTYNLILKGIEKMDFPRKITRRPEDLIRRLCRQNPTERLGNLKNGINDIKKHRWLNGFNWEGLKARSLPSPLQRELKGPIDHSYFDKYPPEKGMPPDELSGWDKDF
UniProt P49840, whole entry: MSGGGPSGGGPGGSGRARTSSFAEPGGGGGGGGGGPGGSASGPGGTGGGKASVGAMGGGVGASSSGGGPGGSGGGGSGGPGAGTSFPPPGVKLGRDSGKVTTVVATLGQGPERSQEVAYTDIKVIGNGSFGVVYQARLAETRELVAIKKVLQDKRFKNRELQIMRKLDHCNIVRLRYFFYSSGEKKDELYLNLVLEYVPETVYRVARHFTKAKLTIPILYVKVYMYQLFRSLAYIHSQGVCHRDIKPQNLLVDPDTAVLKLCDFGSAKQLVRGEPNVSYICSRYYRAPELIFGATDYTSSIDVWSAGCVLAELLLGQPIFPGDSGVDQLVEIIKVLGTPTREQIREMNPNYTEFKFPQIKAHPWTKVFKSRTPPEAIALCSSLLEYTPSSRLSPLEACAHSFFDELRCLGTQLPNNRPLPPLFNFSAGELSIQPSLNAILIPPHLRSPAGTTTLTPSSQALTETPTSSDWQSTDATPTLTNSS
UniProt Q9NQU5, whole entry: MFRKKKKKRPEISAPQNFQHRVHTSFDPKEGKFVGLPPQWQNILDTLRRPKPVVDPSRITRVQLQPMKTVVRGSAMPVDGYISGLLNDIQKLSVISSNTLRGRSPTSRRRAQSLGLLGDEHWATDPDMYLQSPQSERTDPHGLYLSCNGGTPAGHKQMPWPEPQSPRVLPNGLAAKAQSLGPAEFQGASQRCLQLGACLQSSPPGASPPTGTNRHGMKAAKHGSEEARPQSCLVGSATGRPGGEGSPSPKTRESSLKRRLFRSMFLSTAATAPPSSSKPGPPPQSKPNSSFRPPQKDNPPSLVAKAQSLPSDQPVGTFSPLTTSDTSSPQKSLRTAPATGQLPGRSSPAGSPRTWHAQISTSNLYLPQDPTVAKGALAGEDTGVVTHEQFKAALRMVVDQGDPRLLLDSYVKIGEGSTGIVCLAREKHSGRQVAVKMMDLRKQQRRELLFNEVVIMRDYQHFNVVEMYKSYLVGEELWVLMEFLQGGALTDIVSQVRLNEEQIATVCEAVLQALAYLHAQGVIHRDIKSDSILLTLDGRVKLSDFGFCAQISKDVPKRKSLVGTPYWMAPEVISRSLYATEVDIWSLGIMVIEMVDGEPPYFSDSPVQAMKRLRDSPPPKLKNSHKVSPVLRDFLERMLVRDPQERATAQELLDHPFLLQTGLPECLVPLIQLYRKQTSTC
UniProt Q16816, whole entry: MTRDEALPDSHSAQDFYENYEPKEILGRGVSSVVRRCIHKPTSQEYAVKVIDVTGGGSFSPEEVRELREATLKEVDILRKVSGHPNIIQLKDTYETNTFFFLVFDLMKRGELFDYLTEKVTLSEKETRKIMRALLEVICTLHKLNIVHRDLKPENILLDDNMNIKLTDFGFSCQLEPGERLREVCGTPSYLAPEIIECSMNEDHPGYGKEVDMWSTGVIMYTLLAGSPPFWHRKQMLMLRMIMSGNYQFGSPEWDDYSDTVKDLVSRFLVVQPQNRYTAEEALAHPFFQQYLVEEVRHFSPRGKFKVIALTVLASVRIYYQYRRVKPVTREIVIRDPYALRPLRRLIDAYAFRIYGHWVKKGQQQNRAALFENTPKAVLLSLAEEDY
UniProt Q00535, whole entry: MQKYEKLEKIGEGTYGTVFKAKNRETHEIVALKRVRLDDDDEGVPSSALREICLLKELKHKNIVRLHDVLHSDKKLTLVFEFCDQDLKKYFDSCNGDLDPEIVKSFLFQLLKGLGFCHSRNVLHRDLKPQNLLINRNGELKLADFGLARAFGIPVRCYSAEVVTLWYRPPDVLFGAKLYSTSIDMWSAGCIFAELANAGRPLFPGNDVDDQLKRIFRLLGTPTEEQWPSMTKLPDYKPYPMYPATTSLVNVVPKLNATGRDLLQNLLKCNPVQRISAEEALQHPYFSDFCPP
UniProt P51817, whole entry: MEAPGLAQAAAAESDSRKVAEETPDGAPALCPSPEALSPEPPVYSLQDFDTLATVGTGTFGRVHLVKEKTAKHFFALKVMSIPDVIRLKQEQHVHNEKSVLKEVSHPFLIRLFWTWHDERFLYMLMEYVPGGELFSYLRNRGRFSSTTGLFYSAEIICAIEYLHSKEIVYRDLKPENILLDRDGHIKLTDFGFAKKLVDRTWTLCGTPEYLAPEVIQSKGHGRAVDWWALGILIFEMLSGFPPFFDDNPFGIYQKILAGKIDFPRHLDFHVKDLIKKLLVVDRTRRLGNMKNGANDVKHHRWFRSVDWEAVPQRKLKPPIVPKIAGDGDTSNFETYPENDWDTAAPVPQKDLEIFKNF
UniProt Q52WX2, whole entry: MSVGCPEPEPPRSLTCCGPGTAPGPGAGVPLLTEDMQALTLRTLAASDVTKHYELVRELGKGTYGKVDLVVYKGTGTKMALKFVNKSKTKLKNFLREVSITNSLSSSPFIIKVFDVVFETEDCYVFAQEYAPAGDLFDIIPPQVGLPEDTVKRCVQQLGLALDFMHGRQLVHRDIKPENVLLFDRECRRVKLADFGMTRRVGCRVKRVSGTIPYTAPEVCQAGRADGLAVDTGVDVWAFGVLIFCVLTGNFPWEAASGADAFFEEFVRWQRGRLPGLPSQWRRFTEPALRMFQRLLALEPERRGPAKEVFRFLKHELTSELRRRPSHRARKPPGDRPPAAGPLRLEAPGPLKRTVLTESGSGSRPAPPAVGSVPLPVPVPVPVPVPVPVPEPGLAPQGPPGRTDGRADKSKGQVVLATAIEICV
UniProt Q9H4B4, whole entry: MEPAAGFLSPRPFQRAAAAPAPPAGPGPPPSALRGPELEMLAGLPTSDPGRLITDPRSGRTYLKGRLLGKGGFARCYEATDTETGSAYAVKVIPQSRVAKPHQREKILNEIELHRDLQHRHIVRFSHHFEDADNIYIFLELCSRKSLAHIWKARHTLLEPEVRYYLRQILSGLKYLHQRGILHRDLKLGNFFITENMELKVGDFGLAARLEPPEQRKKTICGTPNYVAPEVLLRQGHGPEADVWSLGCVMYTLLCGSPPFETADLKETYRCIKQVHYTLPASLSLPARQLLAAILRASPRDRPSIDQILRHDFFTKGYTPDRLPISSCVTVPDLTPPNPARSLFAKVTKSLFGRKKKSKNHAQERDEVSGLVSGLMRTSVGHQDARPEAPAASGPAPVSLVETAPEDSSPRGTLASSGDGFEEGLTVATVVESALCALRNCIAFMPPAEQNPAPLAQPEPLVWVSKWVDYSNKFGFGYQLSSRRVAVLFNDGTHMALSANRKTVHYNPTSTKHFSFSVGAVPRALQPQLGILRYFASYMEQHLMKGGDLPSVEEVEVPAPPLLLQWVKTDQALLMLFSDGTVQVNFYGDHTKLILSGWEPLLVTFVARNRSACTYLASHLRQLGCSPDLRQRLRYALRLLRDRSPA
UniProt P08631, whole entry: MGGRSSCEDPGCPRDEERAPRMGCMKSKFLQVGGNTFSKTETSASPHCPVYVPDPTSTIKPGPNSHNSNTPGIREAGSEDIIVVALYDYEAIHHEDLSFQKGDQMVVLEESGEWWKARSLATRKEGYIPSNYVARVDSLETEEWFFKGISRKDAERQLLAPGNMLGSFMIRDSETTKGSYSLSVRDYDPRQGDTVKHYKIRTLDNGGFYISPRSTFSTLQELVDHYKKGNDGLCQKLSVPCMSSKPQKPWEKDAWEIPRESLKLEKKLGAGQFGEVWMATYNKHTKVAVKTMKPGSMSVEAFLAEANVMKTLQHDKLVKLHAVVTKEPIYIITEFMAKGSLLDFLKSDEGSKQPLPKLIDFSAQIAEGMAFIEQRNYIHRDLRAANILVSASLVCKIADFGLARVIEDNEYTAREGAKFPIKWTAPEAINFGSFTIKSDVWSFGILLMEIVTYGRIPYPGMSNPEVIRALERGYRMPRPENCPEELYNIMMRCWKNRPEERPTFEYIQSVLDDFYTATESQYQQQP
UniProt Q8WTQ7, 1-550 limits assumed: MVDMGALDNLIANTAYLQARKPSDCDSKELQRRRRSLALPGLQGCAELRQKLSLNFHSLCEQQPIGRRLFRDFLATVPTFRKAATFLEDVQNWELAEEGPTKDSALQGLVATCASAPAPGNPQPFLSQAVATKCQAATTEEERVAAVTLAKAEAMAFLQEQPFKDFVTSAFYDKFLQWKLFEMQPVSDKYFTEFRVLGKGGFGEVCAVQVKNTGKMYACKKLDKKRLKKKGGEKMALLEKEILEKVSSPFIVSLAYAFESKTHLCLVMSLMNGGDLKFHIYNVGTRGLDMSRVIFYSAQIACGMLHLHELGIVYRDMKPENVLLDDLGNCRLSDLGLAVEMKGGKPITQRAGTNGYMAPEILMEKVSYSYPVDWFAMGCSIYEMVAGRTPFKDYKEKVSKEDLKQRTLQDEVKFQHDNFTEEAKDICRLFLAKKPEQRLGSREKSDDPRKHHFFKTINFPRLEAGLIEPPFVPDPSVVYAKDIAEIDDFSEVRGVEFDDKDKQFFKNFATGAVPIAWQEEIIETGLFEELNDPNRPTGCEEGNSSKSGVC

Columns and labels:
Assay in all cases: Kinase profiling, Z-Lyte
PRKD1 (PKC mu) = PRKD1 (PKC mu) (Homo sapiens, UniProt Q15139); settings: 1 μM, KmATP
CDC42BPG = CDC42BPG (Homo sapiens, UniProt Q6DT37); settings: 1 μM, KmATP
HIPK2 = HIPK2 (Homo sapiens, UniProt Q9H2X6); settings: 1 μM, KmATP
MAPK13 (p38 delta) = MAPK13 (p38 delta) (Homo sapiens, UniProt O15264); settings: 1 μM, KmATP
AURKA (Aurora A) = AURKA (Aurora A) (Homo sapiens, UniProt O14965); settings: 1 μM, KmATP
KDR (VEGFR2) = KDR (VEGFR2) (Homo sapiens, UniProt P35968); settings: 1 μM, KmATP
RAF1 Y340D Y341D = RAF1 Y340D Y341D (Homo sapiens, UniProt P04049, Y340D/Y341D); settings: 10-point CR, ATP 100.000 μM
PASK = PASK (Homo sapiens, UniProt Q96RG2); settings: 1 μM, KmATP
FER = FER (Homo sapiens, UniProt P16591); settings: 1 μM, KmATP
DCAMKL2 (DCK2) = DCAMKL2 (DCK2) (Homo sapiens, UniProt Q8N568); settings: 1 μM, KmATP
MAPKAPK3 = MAPKAPK3 (Homo sapiens, UniProt Q16644); settings: 1 μM, KmATP
PRKG1 = PRKG1 (Homo sapiens, UniProt Q13976); settings: 1 μM, KmATP
PRKG2 (PKG2) = PRKG2 (PKG2) (Homo sapiens, UniProt Q13237); settings: 1 μM, KmATP
GSK3A = GSK3A (Homo sapiens, UniProt P49840); settings: 1 μM, KmATP
PRKCN (PKD3) = PRKCN (PKD3) (Homo sapiens, UniProt O94806); settings: 1 μM, KmATP
MINK1 = MINK1 (Homo sapiens, UniProt Q8N4C8); settings: 1 μM, KmATP
TBK1 = TBK1 (Homo sapiens, UniProt Q9UHD2); settings: 1 μM, KmATP
DYRK1A = DYRK1A (Homo sapiens, UniProt Q13627); settings: 1 μM, KmATP
NEK1 = NEK1 (Homo sapiens, UniProt Q96PY6); settings: 1 μM, KmATP
AMPK A1/B2/G2 = AMPK A1/B2/G2 (Homo sapiens, UniProt Q13131); settings: 1 μM, KmATP
PAK6 = PAK6 (Homo sapiens, UniProt Q9NQU5); settings: 1 μM, KmATP
ROCK1 = ROCK1 (Homo sapiens, UniProt Q13464); settings: 1 μM, KmATP
MARK3 = MARK3 (Homo sapiens, UniProt P27448); settings: 1 μM, KmATP
PHKG1 = PHKG1 (Homo sapiens, UniProt Q16816); settings: 1 μM, KmATP
CDK5/p35 = CDK5/p35 (Homo sapiens, UniProt Q00535); settings: 1 μM, KmATP
TNK1 = TNK1 (Homo sapiens, UniProt Q13470); settings: 1 μM, KmATP
MARK1 (MARK) = MARK1 (MARK) (Homo sapiens, UniProt Q9P0L2); settings: 1 μM, KmATP
PRKX = PRKX (Homo sapiens, UniProt P51817); settings: 1 μM, KmATP
SBK1 = SBK1 (Homo sapiens, UniProt Q52WX2); settings: 1 μM, KmATP
PAK3 = PAK3 (Homo sapiens, UniProt O75914); settings: 1 μM, KmATP
AMPK A2/B2/G3 = AMPK A2/B2/G3 (Homo sapiens, UniProt P54646); settings: 1 μM, KmATP
PLK3 = PLK3 (Homo sapiens, UniProt Q9H4B4); settings: 1 μM, KmATP
MARK2 = MARK2 (Homo sapiens, UniProt Q7KZI7); settings: 1 μM, KmATP
ABL1 Hu Phos = ABL1 Hu Phos (Homo sapiens, UniProt P00519)
HCK = HCK (Homo sapiens, UniProt P08631); settings: 1 μM, KmATP
MATK (HYL) = MATK (HYL) (Homo sapiens, UniProt P42679); settings: 1 μM, KmATP
FLT3 Hu Phos = FLT3 Hu Phos (Homo sapiens, UniProt P36888); settings: 1 μM, KmATP
AMPK A2/B1/G2 = AMPK A2/B1/G2 (Homo sapiens, UniProt P54646); settings: 1 μM, KmATP
GRK7 = GRK7 (Homo sapiens, UniProt Q8WTQ7); settings: 1 μM, KmATP
CAMK2B = CAMK2B (Homo sapiens, UniProt Q13554); settings: 1 μM, KmATP

Question: Which “MEAN INHIBITION” value (PRKD1 (PKC mu)) does the source give for `Cc1nc(C(F)(F)F)c2c(C(N)=O)c(N)n(-c3c(C)ccc(O)c3C)c2n1` (single isomer, unassigned) here?
Answer: 3.764%

Question: What about the “MEAN INHIBITION” value (CDC42BPG) of the same molecule?
Answer: 1.141%

Question: What about the “MEAN INHIBITION” value (HIPK2) of the same molecule?
Answer: 1.451%

Question: What about the “MEAN INHIBITION” value (MAPK13 (p38 delta)) of the same molecule?
Answer: 3.793%

Question: What about the “MEAN INHIBITION” value (AURKA (Aurora A)) of the same molecule?
Answer: 3.813%

Question: And the “MEAN INHIBITION” value (KDR (VEGFR2))?
Answer: 1.359%

Question: What about the IC50 (RAF1 Y340D Y341D) of the same molecule?
Answer: 83 nM

Question: What about the “MEAN INHIBITION” value (PASK) of the same molecule?
Answer: 5.814%

Question: What about the “MEAN INHIBITION” value (FER) of the same molecule?
Answer: 3.350%

Question: What about the “MEAN INHIBITION” value (DCAMKL2 (DCK2)) of the same molecule?
Answer: 4.498%

Question: And the “MEAN INHIBITION” value (MAPKAPK3)?
Answer: −0.628%

Question: What about the “MEAN INHIBITION” value (PRKG1) of the same molecule?
Answer: 2.575%

Question: And the “MEAN INHIBITION” value (PRKG2 (PKG2))?
Answer: 2.847%

Question: What about the “MEAN INHIBITION” value (GSK3A) of the same molecule?
Answer: 25.607%

Question: What about the “MEAN INHIBITION” value (PRKCN (PKD3)) of the same molecule?
Answer: 8.236%

Question: And the “MEAN INHIBITION” value (MINK1)?
Answer: 9.318%

Question: And the “MEAN INHIBITION” value (TBK1)?
Answer: 1.328%

Question: What about the “MEAN INHIBITION” value (DYRK1A) of the same molecule?
Answer: 21.554%

Question: What about the “MEAN INHIBITION” value (NEK1) of the same molecule?
Answer: 6.683%

Question: And the “MEAN INHIBITION” value (AMPK A1/B2/G2)?
Answer: 21.257%

Question: And the “MEAN INHIBITION” value (PAK6)?
Answer: 1.993%

Question: What about the “MEAN INHIBITION” value (ROCK1) of the same molecule?
Answer: 2.834%

Question: What about the “MEAN INHIBITION” value (MARK3) of the same molecule?
Answer: 7.414%

Question: And the “MEAN INHIBITION” value (PHKG1)?
Answer: 3.453%

Question: And the “MEAN INHIBITION” value (CDK5/p35)?
Answer: 6.213%

Question: And the “MEAN INHIBITION” value (TNK1)?
Answer: 2.840%

Question: And the “MEAN INHIBITION” value (MARK1 (MARK))?
Answer: 6.666%

Question: What about the “MEAN INHIBITION” value (PRKX) of the same molecule?
Answer: 1.119%

Question: And the “MEAN INHIBITION” value (SBK1)?
Answer: 2.962%

Question: What about the “MEAN INHIBITION” value (PAK3) of the same molecule?
Answer: 2.463%

Question: And the “MEAN INHIBITION” value (AMPK A2/B2/G3)?
Answer: 2.185%

Question: What about the “MEAN INHIBITION” value (PLK3) of the same molecule?
Answer: 24.992%

Question: And the “MEAN INHIBITION” value (MARK2)?
Answer: 4.784%

Question: And the “MEAN INHIBITION” value (ABL1 Hu Phos; 1 μM, KmATP)?
Answer: 62.791%

Question: And the IC50 (ABL1 Hu Phos; 10-point CR, ATP 10.000 μM)?
Answer: 278 nM

Question: And the “MEAN INHIBITION” value (HCK)?
Answer: 48.744%

Question: And the “MEAN INHIBITION” value (MATK (HYL))?
Answer: 10.674%

Question: And the “MEAN INHIBITION” value (FLT3 Hu Phos)?
Answer: 6.895%

Question: And the “MEAN INHIBITION” value (AMPK A2/B1/G2)?
Answer: 13.352%

Question: What about the “MEAN INHIBITION” value (GRK7) of the same molecule?
Answer: 2.998%

Question: What about the “MEAN INHIBITION” value (CAMK2B) of the same molecule?
Answer: 2.475%
